Apparent affinities of Ab-14 variants for a coronavirus HR2 peptide

Reference: Li et al. 2023, doi:10.1038/s41467-023-39022-2. File: FLAb, binding data.

Binding partner: SARS-CoV-2 spike HR2 peptide, sequence PDVDLGDISGINAS.

Parent scFv Ab-14: VH joined to VL by a (GGGGS)3 linker. Changes lie in the light chain CDRs alone.
VH: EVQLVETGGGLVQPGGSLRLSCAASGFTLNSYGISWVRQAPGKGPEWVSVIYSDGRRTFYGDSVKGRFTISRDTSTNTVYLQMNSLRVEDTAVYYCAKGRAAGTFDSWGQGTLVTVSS
VL: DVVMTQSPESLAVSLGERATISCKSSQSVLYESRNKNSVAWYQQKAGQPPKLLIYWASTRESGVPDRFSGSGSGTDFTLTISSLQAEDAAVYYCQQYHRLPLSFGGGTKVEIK

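Phage display of a naive human antibody library on the peptide gave the parent. This is the validation round: designs drawn from the data on random variants, tested in the same kind of assay. Group labels follow the data file (En: ensemble of fine-tuned language models; GP: Gaussian process model; HC: hill climbing; Gen: genetic algorithm; Gibbs: Gibbs sampling; a sequence that several methods proposed may carry one label only). Affinity was read by AlphaSeq, a pooled yeast mating assay with surface-displayed partners. Pairs that bind mate more often; barcode pairs of the diploids are counted by sequencing. The ratio of observed to expected reads was calibrated, replicate by replicate, on BCL2-family standards whose Kd was known from biolayer interferometry. There are six technical replicates.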

Variants are written as CDR1, CDR2 and CDR3 of the light chain (limits as in the source). Parent: KSSQSVLYESRNKNSVA, WASTRES, QQYHRLPLS.
Variants here have more than six changes.
Kd is apparent (estimated from mating counts) and averaged on the log scale over replicates with a signal. Smaller is tighter.
"not detected" means that the variant was in the library but no mating with the target was seen in any replicate; the authors take this as a sign of poor binding, and no number exists.
Of ten entries with the parent sequence, four were seen in most replicates (averages 2.2 nM to 240 nM), three in one and three in none, so single entries are noisy.
A sequence measured in both rounds can read differently, since the two assays cover different ranges.
Empty control strains, which show no peptide, gave a signal in 4% of pairings with all light chain designs; the median was 430 nM and 95% of these signals were weaker than 38 nM. No background was subtracted. The control count says in how many pairings with the empty strains this scFv gave a signal.
The authors averaged sequences with at least three values out of six and counted those with two or fewer as poor binders.

| CDR-L1 | CDR-L2 | CDR-L3 | group | Kd (apparent) | replicates with signal | empty controls |
|---|---|---|---|---|---|---|
| KLMQGVEMESRNKNSVA | NASKREE | QQYHRLPLS | GP_Gibbs | 620 pM | 6 of 6 | 0 of 18 |
| KLSMMMRFLTEEKNSIA | ELVTRMS | QQYHRLPLS | En_HC | 9.3 nM | 1 of 6 | 0 of 18 |
| MVTQLAMTGMMSKRSVA | NAETRES | QQYHRLPLI | En_Gen | 6.1 nM | 6 of 6 | 0 of 18 |
| TIQQMMSLFSQTINNVA | EVSTRLN | QQYDRLPLA | En_Gen | 46 nM | 6 of 6 | 1 of 18 |
| QIYQAMHTLSQMKHNVA | DVSERGS | QQYFRLPLS | En_Gen | 910 pM | 6 of 6 | 0 of 18 |
| KWQQSELQSSRNKNSVA | NASERES | QQYHRLPLS | GP_Gibbs | 1.5 nM | 6 of 6 | 2 of 18 |
| KLMQGWDMESRNKNSVA | NASMRLD | QQYHRLPLS | GP_Gibbs | 1.8 nM | 6 of 6 | 0 of 18 |
| MVSQLMVWGLHAKNSIA | EAQTRLN | QQYDRLPLF | En_Gen | 63 nM | 2 of 6 | 0 of 18 |
| QIYQAMHTLSQKKNNVA | DVNERGS | QQYFRLPLS | En_Gen | 2.9 nM | 6 of 6 | 0 of 18 |
| KVSTSQEYEDRNKNSVA | HASTRLQ | QQYHRLPLS | GP_Gibbs | 770 pM | 6 of 6 | 0 of 18 |
| KLSQITGHMSVSKNNVA | EMETRAN | QQYDRLPLS | En_Gen | 8.2 nM | 6 of 6 | 3 of 18 |
| KLSDVTEYESRNKNNVA | DLTTRGS | QDYHRLPLS | En_HC | 230 pM | 6 of 6 | 0 of 18 |
| KISQMQRVGSTHQNSIA | EEQTRAK | QQYHRLPLS | En_Gen | 5.3 nM | 6 of 6 | 1 of 18 |
| KITGMWTFESRNKNSIA | EESTRAD | QSYHRLPLS | En_HC | 3.0 nM | 6 of 6 | 4 of 18 |
| KMSGSVMMLSRNVNSVA | QASTREQ | QQYHRLPLS | GP_Gibbs | 810 pM | 6 of 6 | 0 of 18 |
| TIGQTLMQGIRNRSNVA | EVSERLN | QQYDRLPLF | En_Gen | 7.5 nM | 6 of 6 | 1 of 18 |
| KLSQVTHSEMRNKNSIA | EMVTREV | QQYDRLPLS | En_HC | 10 nM | 6 of 6 | 0 of 18 |
| TISQVMNTLTRNTNNVA | DLSNRED | QQYFRLPLS | En_Gen | 1.5 nM | 6 of 6 | 0 of 18 |
| QLGDMVHTESRNKNSIA | DMRTREK | QQYYRLPLS | En_HC | 2.5 nM | 6 of 6 | 0 of 18 |
| KLLWSVLYESNNVNSVA | HASTRED | QQYHRLPLS | GP_HC | 11 nM | 6 of 6 | 4 of 18 |
| MISQLYNMGSFAINSVA | QASERCN | QQYDRLPLI | En_Gen | 13 nM | 6 of 6 | 1 of 18 |
| QLFFNDFQYDIESQNIA | HASLRYV | QQYARLPLV | En_Gibbs | 16 nM | 6 of 6 | 0 of 18 |
| MFSQLMAYGSRYKNSVA | QASTRED | QQYHYLPLS | En_HC | 13 nM | 6 of 6 | 0 of 18 |
| TIGGTLMFGSRNRSNVA | EVSERLN | QQYDRLPLF | En_Gen | 110 nM | 6 of 6 | 1 of 18 |
| SVFMELAMEKNSYRNIA | DASMRLA | QQYVRLPLG | En_Gibbs | 1.1 nM | 6 of 6 | 0 of 18 |
| SMQLDQIEGNQQQNSIA | GESEADM | QHYERLPLT | En_Gibbs | not detected | 0 of 6 | 0 of 18 |
| KLRQSTHIESFNKNNVA | EMTTREE | QSYDRLPLS | En_HC | 120 nM | 5 of 6 | 0 of 18 |
| SIQFYTENFAEWGDSIA | DVSATTA | QQYHRLPLA | En_Gibbs | 31 nM | 6 of 6 | 1 of 18 |
| MVTQMAMSGMTNKRSVA | NAETREH | QQYHHLPLI | En_Gen | 5.1 nM | 6 of 6 | 0 of 18 |
| KLGMTVGYEQRNKSRVA | DNSTRES | QQYDRLPLS | En_HC | 160 nM | 4 of 6 | 0 of 18 |
| TLTQVQGMESHNKDNVA | DLSTRGS | QQYNRLPLS | En_HC | 580 pM | 6 of 6 | 1 of 18 |
| MFSQMWGVGSKAKNSVA | QASMRFN | QQYDRLPLI | En_Gen | 12 nM | 6 of 6 | 1 of 18 |
| KIGATLNTLYEQKNNVA | DLVEREN | QQYFRLPLS | En_Gen | 2.3 nM | 6 of 6 | 0 of 18 |
| TLSHSTDLELVHKNSIA | DLMTRES | QQYDRLPLS | En_HC | 1.7 nM | 6 of 6 | 2 of 18 |
| MISQIYNMGQFAINSVA | QASVRNE | QQYDRLPLM | En_Gen | 56 nM | 6 of 6 | 1 of 18 |
| TVSQVHEMLSRNKNSVA | DMNTREE | QQYDRLPLS | En_HC | 5.1 nM | 6 of 6 | 0 of 18 |
| KLSWKSLYGETRWSAIA | NTKVRNA | QQYFRLPLQ | En_Gibbs | 6.0 nM | 6 of 6 | 1 of 18 |
| TLYGLSNSMSINKDSVA | EMTTREE | QQYDRLPLA | En_Gen | 410 nM | 1 of 6 | 3 of 18 |
| KVSEMMAFLSRNRNSVA | DNSTRGS | QQYHRLPLS | En_HC | 5.4 nM | 6 of 6 | 1 of 18 |
| TLMQVGGYESNAHNSIA | DLRTRED | QQYHRLPLS | En_HC | 11 nM | 6 of 6 | 0 of 18 |
| KITDKFLGEGNGRQNIA | HAMVAVE | QQYQQLPLA | En_Gibbs | 1.3 nM | 6 of 6 | 2 of 18 |
| HMSESEHGDNVGVGNMA | NAQESTD | QQYMHLPLS | En_Gibbs | 670 pM | 6 of 6 | 1 of 18 |
| RLSLEHTGYWEMMNSIA | QASTKQF | QQYDRLPLH | En_Gibbs | 28 nM | 4 of 6 | 0 of 18 |
| KLSQVTHSESRNKNSIA | EMVTREQ | QQYDRLPLS | En_HC | 7.9 nM | 6 of 6 | 1 of 18 |
| KLSNSNLYESRNGNSVA | NASTRLH | QQYHRLPLS | GP_Gibbs | 3.3 nM | 6 of 6 | 0 of 18 |
| MISEVMNTMTRHGNNVA | DLTERED | QQYFRLPLS | En_Gen | 7.1 nM | 6 of 6 | 0 of 18 |
| KAQQSNLYEDRNQNSVA | SASQRLS | QQYHRLPLS | GP_Gibbs | 1.5 nM | 6 of 6 | 0 of 18 |
| SIGGHMKSSMAHRNSVA | DMTNRED | QQYDRLPLS | En_Gen | 1.5 nM | 6 of 6 | 1 of 18 |
| MISQLWNMGQFAINSVA | QASLRCN | QQYDRLPLM | En_Gen | 190 nM | 1 of 6 | 0 of 18 |
| MISQLWNMGSFAINSVA | QAEIRNE | QQYDRLPLI | En_Gen | 40 nM | 3 of 6 | 0 of 18 |
| KLSIFHQVNSINKSNVA | EMVTRES | QQYDRLPLS | En_HC | 16 nM | 6 of 6 | 0 of 18 |
| VLQQSELYESRNKNSVA | DASKREE | QQYHRLPLS | GP_Gibbs | 260 pM | 6 of 6 | 0 of 18 |
| KIQWYPLENRGTIQAIA | EASTIYN | QQYMHLPLS | En_Gibbs | 20 nM | 3 of 6 | 1 of 18 |
| MLSQMWGVGTKAKNSVA | QASTRFN | QQYHRLPLI | En_Gen | 21 nM | 6 of 6 | 1 of 18 |
| KFEGSWLYESRNGNSVA | QASTRSS | QQYHRLPLS | GP_Gibbs | 2.2 nM | 6 of 6 | 1 of 18 |
| KLSGSVMMLQRNDNSVA | DANTRES | QQYHRLPLS | GP_Gibbs | 990 pM | 6 of 6 | 0 of 18 |
| KLSATYRWESQNKNSIA | EMTTRES | QCYHRLPLS | En_HC | 99 nM | 5 of 6 | 1 of 18 |
| MISQLYNMGTFMINSVA | QASLRNE | QQYDRLPLM | En_Gen | 10 nM | 1 of 6 | 0 of 18 |
| MISQVLNTLTRNGNNVA | DLQEREK | QQYFRLPLS | En_Gen | 56 nM | 5 of 6 | 0 of 18 |
| KLKIEVVDNQQLRNSIA | ENELRAM | QQYLSLPLS | En_Gibbs | 21 nM | 6 of 6 | 1 of 18 |
| TISNMWFLESKNKNNVA | EESTRED | QSYFRLPLS | En_HC | 1.7 nM | 6 of 6 | 0 of 18 |
| KLREVQHVESKQRNNVA | DNDTREY | QDYYRLPLS | En_HC | 260 nM | 5 of 6 | 0 of 18 |
| AFSQSHLYESRNQNSVA | EASTRCD | QQYHRLPLS | GP_Gibbs | 2.7 nM | 6 of 6 | 0 of 18 |
| HITDLMYFGNEGEKNIA | DKNISVM | QQYFRLPLS | En_Gibbs | 2.4 nM | 6 of 6 | 0 of 18 |
| KLMQSSGYESRNFNSVA | QASTRMS | QQYHRLPLS | GP_Gibbs | 5.2 nM | 6 of 6 | 3 of 18 |
| RFEDSISEKEGRHNSIA | EEHMRLD | QYYGRLPLA | En_Gibbs | 38 nM | 6 of 6 | 0 of 18 |
| QMTHPSASWQANQASIA | DASLSLQ | QQYAQLPLM | En_Gibbs | 7.3 nM | 6 of 6 | 1 of 18 |
| TVSQVNGMLSHNKNSVA | DMNTRGS | QQYDRLPLS | En_HC | 2.6 nM | 6 of 6 | 1 of 18 |
| KLSELAHFESRKKNSVA | ENSTRES | QQYDHLPLS | En_HC | 84 nM | 6 of 6 | 1 of 18 |
| HITMGMYVHGRYKSNIA | QAETRMK | QQYDRLPLM | En_Gen | 17 nM | 6 of 6 | 1 of 18 |
| KLLQNVMTEGRMRNNVA | HMDMRED | QQYWRLPLS | En_HC | 13 nM | 6 of 6 | 0 of 18 |
| LLSQSELLESRNWNAVA | HASTRMS | QQYHRLPLS | GP_Gibbs | 2.2 nM | 6 of 6 | 2 of 18 |
| KLYDEAENRYSTATNIA | DKKISLQ | QQYDRLPLS | En_Gibbs | 14 nM | 6 of 6 | 1 of 18 |
| KISINQMHYNKMRSAIA | NTNQKAM | QQYFHLPLM | En_Gibbs | 6.0 nM | 6 of 6 | 0 of 18 |
| MINMEIGIEDRKWQAVA | SATVRAS | QQYGRLPFS | En_Gibbs | 37 nM | 5 of 6 | 0 of 18 |
| LMNERMMMGENQQHNIA | NAATLVK | QQYHRLPLG | En_Gibbs | 710 pM | 6 of 6 | 1 of 18 |
| MMSQVTGMESKHRNNVA | QTSTREA | QQYDRLPLI | En_Gen | 2.1 nM | 6 of 6 | 0 of 18 |
| MMSQVTGLGQRHRNNVA | QTSMRET | QQYDHLPLI | En_Gen | 6.3 nM | 6 of 6 | 1 of 18 |
| TIGQTLMAGIRNRSNVA | EVSQRLN | QQYDRLPLL | En_Gen | 6.0 nM | 6 of 6 | 6 of 18 |
| MMSMGYLGGMRAKNNVA | QEETRED | QQYHRLPLI | En_HC | not detected | 0 of 6 | 0 of 18 |

Excerpt, the first 7 entries:

| CDR-L1 | CDR-L2 | CDR-L3 | group | Kd (apparent) | replicates with signal | empty controls |
|---|---|---|---|---|---|---|
| KLMQGVEMESRNKNSVA | NASKREE | QQYHRLPLS | GP_Gibbs | 620 pM | 6 of 6 | 0 of 18 |
| KLSMMMRFLTEEKNSIA | ELVTRMS | QQYHRLPLS | En_HC | 9.3 nM | 1 of 6 | 0 of 18 |
| MVTQLAMTGMMSKRSVA | NAETRES | QQYHRLPLI | En_Gen | 6.1 nM | 6 of 6 | 0 of 18 |
| TIQQMMSLFSQTINNVA | EVSTRLN | QQYDRLPLA | En_Gen | 46 nM | 6 of 6 | 1 of 18 |
| QIYQAMHTLSQMKHNVA | DVSERGS | QQYFRLPLS | En_Gen | 910 pM | 6 of 6 | 0 of 18 |
| KWQQSELQSSRNKNSVA | NASERES | QQYHRLPLS | GP_Gibbs | 1.5 nM | 6 of 6 | 2 of 18 |
| KLMQGWDMESRNKNSVA | NASMRLD | QQYHRLPLS | GP_Gibbs | 1.8 nM | 6 of 6 | 0 of 18 |